Results published in patent publication US8604061B2, “2-aminooxazolines as TAAR1 ligands” (Hoffmann-La Roche Inc., priority 2007, dated 2013).

Amino acid sequences for entries named in this document (tags omitted).
UniProt Q923Y8, whole entry: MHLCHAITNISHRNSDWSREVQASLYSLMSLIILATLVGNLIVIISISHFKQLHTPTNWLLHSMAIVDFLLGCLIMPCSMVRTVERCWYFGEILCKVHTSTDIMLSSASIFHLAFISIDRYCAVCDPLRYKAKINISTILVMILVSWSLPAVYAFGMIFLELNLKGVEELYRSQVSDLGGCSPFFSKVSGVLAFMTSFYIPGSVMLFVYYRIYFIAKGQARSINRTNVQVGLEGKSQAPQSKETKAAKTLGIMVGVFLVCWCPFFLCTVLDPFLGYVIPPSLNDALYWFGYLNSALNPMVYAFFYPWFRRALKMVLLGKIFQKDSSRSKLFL

Target: TAAR1 (Mus musculus, UniProt Q923Y8)
Assay: TAAR1 radioligand binding, membranes of stably transfected HEK293 cells (mouse)
Details: read-out: Ki (μM) mouse/rat, cell not marked 'rat', radioligand [3H]-rac-2-(1,2,3,4-tetrahydro-1-naphthyl)-2-imidazoline, 4° C.

Molecule `CC1(c2cc(F)cc(F)c2F)COC(N)=N1` (racemic) has a Ki of 0.0081 µM.
